Assay results: PubChem BioAssay AID1817 (Sanford-Burnham Center for Chemical Genomics, 2009)
The list shows a part of the results, in another mix than the full data. Potency and affinity values are given separately. The source made the active and inactive calls.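 Rule for the calls: active = displacement of at least 50% at 20 µM, with a fluorescence ratio check between 0.3 and a set limit; inactive = the rest.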

The chains behind the UniProt entries cited, without tags or fusion partners.
UniProt Q8IUQ4, whole entry: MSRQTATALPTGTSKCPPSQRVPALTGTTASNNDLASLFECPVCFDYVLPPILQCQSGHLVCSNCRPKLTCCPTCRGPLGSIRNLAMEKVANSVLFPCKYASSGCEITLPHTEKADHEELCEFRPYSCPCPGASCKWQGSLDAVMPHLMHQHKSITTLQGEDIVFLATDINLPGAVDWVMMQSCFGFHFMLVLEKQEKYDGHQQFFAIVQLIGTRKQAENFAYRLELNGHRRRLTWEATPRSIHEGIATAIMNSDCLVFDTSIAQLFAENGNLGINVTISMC
UniProt Q15149, whole entry partner: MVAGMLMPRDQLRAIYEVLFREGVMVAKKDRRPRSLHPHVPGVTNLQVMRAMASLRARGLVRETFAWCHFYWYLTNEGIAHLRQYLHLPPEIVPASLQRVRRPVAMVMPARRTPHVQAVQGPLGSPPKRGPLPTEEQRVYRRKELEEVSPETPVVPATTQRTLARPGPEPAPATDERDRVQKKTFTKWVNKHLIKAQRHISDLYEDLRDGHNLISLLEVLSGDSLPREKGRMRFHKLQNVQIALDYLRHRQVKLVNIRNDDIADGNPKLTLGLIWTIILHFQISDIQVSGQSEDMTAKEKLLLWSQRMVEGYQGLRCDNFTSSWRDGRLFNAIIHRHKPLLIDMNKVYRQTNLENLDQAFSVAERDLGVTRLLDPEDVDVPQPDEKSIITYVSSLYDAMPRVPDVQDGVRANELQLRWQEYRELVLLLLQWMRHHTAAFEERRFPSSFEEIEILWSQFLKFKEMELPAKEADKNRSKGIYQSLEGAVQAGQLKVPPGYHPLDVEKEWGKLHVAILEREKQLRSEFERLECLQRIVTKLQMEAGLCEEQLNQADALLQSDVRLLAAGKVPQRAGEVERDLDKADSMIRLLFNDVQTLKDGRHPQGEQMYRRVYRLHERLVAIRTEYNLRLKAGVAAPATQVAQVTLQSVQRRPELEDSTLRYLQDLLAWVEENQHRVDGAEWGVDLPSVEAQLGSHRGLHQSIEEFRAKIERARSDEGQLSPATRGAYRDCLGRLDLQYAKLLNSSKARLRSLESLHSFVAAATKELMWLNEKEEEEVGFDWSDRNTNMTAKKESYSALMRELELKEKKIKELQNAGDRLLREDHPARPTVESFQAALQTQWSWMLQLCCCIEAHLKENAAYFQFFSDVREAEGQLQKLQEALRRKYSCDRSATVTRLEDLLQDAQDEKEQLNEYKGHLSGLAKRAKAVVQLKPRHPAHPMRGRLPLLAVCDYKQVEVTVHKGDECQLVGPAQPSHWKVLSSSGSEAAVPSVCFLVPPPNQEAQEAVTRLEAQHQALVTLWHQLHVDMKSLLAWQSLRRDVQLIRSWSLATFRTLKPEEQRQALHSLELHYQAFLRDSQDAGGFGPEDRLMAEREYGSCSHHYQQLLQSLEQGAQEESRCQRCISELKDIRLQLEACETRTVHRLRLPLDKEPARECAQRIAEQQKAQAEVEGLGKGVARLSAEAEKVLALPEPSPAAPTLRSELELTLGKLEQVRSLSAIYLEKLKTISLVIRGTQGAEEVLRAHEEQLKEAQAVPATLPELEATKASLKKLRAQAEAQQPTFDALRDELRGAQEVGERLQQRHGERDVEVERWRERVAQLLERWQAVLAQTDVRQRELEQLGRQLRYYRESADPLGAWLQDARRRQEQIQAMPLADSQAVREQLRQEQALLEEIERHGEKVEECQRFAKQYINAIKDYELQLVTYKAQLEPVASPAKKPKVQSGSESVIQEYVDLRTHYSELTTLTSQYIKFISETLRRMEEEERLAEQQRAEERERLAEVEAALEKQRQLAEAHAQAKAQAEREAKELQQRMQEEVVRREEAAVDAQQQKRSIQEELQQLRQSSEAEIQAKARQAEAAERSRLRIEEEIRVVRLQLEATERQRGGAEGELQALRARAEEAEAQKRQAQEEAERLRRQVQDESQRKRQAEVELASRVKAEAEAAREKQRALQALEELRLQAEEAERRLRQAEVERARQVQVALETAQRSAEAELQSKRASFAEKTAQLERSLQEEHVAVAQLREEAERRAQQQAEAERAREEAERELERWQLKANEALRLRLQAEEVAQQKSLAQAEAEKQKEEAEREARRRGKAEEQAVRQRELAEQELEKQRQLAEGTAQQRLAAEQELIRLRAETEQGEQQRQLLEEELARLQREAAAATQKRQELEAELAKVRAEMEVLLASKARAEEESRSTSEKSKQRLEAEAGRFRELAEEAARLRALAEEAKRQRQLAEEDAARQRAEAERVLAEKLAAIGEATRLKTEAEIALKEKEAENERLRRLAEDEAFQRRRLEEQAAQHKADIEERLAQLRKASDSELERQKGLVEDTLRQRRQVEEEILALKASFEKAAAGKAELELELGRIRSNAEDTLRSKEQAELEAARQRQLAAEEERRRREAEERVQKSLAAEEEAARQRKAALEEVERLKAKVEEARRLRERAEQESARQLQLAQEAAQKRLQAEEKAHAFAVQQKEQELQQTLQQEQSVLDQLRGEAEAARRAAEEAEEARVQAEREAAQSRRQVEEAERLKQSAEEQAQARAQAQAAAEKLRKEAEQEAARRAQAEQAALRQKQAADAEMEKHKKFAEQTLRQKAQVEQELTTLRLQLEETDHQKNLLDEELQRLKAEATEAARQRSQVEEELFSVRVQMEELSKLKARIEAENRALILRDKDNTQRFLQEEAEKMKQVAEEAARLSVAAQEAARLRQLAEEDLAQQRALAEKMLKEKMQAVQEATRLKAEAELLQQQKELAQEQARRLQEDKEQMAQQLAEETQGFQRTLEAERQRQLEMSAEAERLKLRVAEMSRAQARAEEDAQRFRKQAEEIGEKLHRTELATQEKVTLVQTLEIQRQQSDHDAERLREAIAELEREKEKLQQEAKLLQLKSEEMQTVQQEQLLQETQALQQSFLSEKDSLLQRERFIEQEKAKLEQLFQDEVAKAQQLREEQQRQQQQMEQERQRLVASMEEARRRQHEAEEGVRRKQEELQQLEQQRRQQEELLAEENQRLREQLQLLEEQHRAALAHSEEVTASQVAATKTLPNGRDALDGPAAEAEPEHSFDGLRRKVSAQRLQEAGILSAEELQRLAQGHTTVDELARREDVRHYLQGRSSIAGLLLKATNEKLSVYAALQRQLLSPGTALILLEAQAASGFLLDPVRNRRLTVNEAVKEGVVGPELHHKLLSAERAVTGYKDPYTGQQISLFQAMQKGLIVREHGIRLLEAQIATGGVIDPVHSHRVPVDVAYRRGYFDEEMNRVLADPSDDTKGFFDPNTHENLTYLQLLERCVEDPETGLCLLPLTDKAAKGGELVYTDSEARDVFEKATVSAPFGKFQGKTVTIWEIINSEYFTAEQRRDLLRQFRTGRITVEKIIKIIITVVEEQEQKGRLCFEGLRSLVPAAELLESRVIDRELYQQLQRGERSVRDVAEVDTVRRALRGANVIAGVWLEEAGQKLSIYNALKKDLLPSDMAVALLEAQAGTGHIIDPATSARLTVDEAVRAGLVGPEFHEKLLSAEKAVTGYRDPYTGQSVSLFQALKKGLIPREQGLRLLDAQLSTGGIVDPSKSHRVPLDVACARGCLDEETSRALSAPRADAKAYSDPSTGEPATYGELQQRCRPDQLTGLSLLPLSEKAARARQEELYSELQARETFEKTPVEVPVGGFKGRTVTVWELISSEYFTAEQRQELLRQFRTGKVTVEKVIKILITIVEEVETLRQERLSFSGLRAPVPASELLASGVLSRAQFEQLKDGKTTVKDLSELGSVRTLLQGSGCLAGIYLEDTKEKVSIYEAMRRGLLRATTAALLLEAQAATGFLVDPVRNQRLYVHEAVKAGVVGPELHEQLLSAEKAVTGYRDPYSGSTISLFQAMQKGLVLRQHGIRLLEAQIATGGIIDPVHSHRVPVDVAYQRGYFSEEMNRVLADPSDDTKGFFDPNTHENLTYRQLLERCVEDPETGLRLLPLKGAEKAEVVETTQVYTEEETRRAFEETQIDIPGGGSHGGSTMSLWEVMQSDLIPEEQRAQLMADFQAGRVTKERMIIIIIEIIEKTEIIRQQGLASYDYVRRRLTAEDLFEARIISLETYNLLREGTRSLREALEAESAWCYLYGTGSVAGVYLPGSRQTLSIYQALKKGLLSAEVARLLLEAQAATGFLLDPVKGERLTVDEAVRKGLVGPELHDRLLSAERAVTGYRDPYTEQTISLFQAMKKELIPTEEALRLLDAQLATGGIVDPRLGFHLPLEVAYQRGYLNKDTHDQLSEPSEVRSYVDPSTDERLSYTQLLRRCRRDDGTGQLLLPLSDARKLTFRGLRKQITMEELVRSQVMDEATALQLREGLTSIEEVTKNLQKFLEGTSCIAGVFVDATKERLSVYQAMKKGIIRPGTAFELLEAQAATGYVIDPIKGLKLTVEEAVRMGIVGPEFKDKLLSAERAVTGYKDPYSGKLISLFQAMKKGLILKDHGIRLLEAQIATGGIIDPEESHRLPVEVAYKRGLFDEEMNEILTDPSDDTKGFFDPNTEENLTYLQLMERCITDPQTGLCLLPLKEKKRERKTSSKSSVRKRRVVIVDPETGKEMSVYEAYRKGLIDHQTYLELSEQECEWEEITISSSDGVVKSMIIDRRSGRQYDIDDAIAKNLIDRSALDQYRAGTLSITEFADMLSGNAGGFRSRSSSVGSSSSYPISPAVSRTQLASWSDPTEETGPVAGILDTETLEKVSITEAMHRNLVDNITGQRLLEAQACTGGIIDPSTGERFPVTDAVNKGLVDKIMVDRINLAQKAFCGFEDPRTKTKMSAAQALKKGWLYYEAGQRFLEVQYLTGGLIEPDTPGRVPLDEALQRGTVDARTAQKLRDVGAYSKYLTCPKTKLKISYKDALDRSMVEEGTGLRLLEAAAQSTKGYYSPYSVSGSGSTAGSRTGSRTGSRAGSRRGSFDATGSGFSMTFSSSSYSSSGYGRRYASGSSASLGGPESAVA

Molecular target: E3 ubiquitin-protein ligase SIAH1 (Homo sapiens) (UniProt Q8IUQ4)
Assay: blockers of Siah-1 interaction with plectin peptide – biochemical, fluorescence polarization, rhodamine-plectin, uHTS, primary screen (AID 1817);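 note: plate controls were Siah plus tracer with DMSO for no effect and tracer alone without Siah for full effect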
Conditions: Siah-1 / rhodamine-plectin peptide fluorescence polarization; at 20 µM; hits give high values

| SMILES | displacement |
| --- | --- |
| CCOc1ccc(C)cc1CN(CCCl)CCCl | inactive: 5.5% |
| O=C(NCC1(N2CCCCC2)CCCCC1)c1ccc(F)cc1 | inactive: 5.6% |
| CCOC(=O)N1CCC(Nc2ccc(F)cc2)CC1 | inactive: -0.2% |
| COc1ccc(NC2CCN(CCc3ccccc3)CC2)c(OC)c1 | inactive: 4.6% |
| CCOC(=O)N1CCC(Nc2cccc(C)c2)CC1 | inactive: 11.4% |
| COc1cc(C(=O)NCC2(N(C)C)CCCCC2)ccc1OC(F)F | inactive: -4.3% |
| Cc1ccc(OCC(C)C)c(CN(CCCl)CCCl)c1 | inactive: -5.2% |
| COc1ccc(C(=O)NCC2(N3CCCCC3)CCCCC2)cc1 | inactive: 2.1% |
| CC(C)(C)OC(=O)N1CCC(N(C(=O)c2ccccc2)c2ccc(F)cc2)CC1 | inactive: 0.3% |
| COc1ccc(C(=O)NCC2(N3CCCCC3)CCCCC2)c(OC)c1OC | inactive: -1.9% |
| O=C(NCC1(N2CCCCC2)CCCCC1)c1ccc(=O)[nH]c1 | inactive: -1.1% |
| CSc1ccccc1C(=O)NCC1(N2CCCCC2)CCCCC1 | inactive: -3.1% |
| Cc1cc(C)cc(N(C(=O)c2ccccc2)C2CCN(C(=O)OC(C)(C)C)CC2)c1 | inactive: -4.3% |
| O=C(NCC1(N2CCOCC2)CCCCC1)c1cc2ccccc2o1 | inactive: 3.2% |
| N#CC1(Nc2ccccc2)CCN(Cc2ccccc2)CC1 | inactive: -3.5% |
| O=C(OC1CN2CCC1CC2)C1c2ccccc2Oc2ccccc21 (centres undefined) | inactive: -5.8% |
| CCOC(=O)N1CCC(Nc2ccc(OC)cc2)CC1 | inactive: 2.6% |
| CC(C)c1ccc(NC2CCN(C(=O)OC(C)(C)C)CC2)cc1 | inactive: -6.7% |
| COc1ccc(CN(CCCl)CCCl)cc1Cl | inactive: 1.3% |
| CN(C)c1cccc(C(=O)NCC2(N3CCCCC3)CCCCC2)c1 | inactive: 12.4% |
| COc1cc(OC)c(C(=O)NCC2(N(C)C)CCCCC2)cc1OC | inactive: -0.3% |
| CCCOc1ccc(C(=O)NCC2(N(C)C)CCCCC2)cc1OC | inactive: -6.2% |
| O=C(NCC1(N2CCCCC2)CCCCC1)c1ccc(OC(F)F)cc1 | inactive: -6.9% |
| CCN1CCC(Nc2ccc(Cl)cc2)CC1 | inactive: 8.4% |
| N#CC1(Nc2ccccc2)CCN(CCc2ccccc2)CC1 | inactive: 0.5% |
| O=C(NCC1(N2CCCCC2)CCCCC1)c1cccc([N+](=O)[O-])c1 | inactive: 2.9% |
| O=C(NCC1(N2CCCCC2)CCCCC1)c1cccc(C(F)(F)F)c1 | inactive: 0% |

| SMILES | displacement |
| --- | --- |
| O=C(NCC1(N2CCOCC2)CCCCC1)c1cc(=O)[nH]c2ccccc12 | inactive: -2.1% |
| COc1cc(C(=O)NCC2(N3CCCCC3)CCCCC2)ccc1OC(F)F | inactive: 2.9% |
| COc1ccc(NC2CCN(C(=O)OC(C)(C)C)CC2)cc1 | inactive: -11.9% |
| CN1CCN(CCOC(=O)C(O)(c2ccccc2)c2ccccc2)CC1 | inactive: 5.9% |
| N#Cc1ccc(C(=O)NCC2(N3CCCCC3)CCCCC2)cc1 | inactive: -6.2% |
| CC(C)(C)OC(=O)N1CCC(N(C(=O)c2ccccc2)c2ccc(Cl)cc2)CC1 | inactive: 3.6% |
| CN(C)C1(CNC(=O)c2cccc(C#N)c2)CCCCC1 | inactive: 0.3% |
| c1ccc(CN2CCC(Nc3ccccc3)CC2)cc1 | inactive: 1.8% |
| CCCN1CCC(Nc2cc(OC)cc(OC)c2)CC1 | inactive: 0.1% |
| COc1ccc(C(=O)NCC2(N3CCOCC3)CCCCC2)cc1OC | inactive: 6.1% |
| CCOC(=O)N1CCC(Nc2ccc(C)cc2)CC1 | inactive: 4.6% |
| N/C(=N\O)c1c(N)no[n+]1[O-] | inactive: 1.8% |
| O=C(OC1CN2CCC1CC2)C1c2ccccc2C=Cc2ccccc21 (centres undefined) | inactive: 4.2% |
| CCOc1ncccc1C(=O)NCC1(N2CCOCC2)CCCCC1 | inactive: -3.6% |
| CN1CCC(Nc2ccc(F)c(Cl)c2)CC1 | inactive: 4.6% |
| CC(C)(C)OC(=O)N1CCC(Nc2ccccc2)CC1 | inactive: -2.2% |
| O=C(O)C1(Nc2ccccc2)CCN(Cc2ccccc2)CC1 | inactive: 2.6% |
| CCCOc1ccc(C(=O)NCC2(N(C)C)CCCCC2)cc1 | inactive: 2.4% |
| COc1cccc(C(=O)N(c2cc(C)cc(C)c2)C2CCN(C(=O)OC(C)(C)C)CC2)c1 | inactive: 4.2% |
| COc1cc(OC)cc(C(=O)NCC2(N3CCOCC3)CCCCC2)c1 | inactive: 3.9% |
| CCC(CO)(C(=O)OC1CN2CCC1CC2)c1ccccc1 (centres undefined) | inactive: -3.2% |
| CN1CCC(Nc2ccc(Cl)cc2)CC1 | inactive: 6.1% |
| CCCOc1ccc(C)cc1CN(CCCl)CCCl | inactive: -5.9% |
| COc1cc(OC)cc(C(=O)NCC2(N3CCCCC3)CCCCC2)c1 | inactive: -5.5% |
| Fc1ccccc1NC1CCN(Cc2ccccc2)CC1 | inactive: -0.8% |
| CCN1CCC(Nc2cccc(F)c2)CC1 | inactive: 6.5% |
| CN(C)c1ccc(C(=O)NCC2(N3CCCCC3)CCCCC2)cc1 | inactive: 5.5% |
